From ChEMBL document CHEMBL4619753, “Treating Cancer by Spindle Assembly Checkpoint Abrogation: Discovery of Two Clinical Candidates, BAY 1161909 and BAY 1217389, Targeting MPS1 Kinase” (J Med Chem, 2020)
The source made the active and inactive calls. No cut-off for these calls is given here.

Test system: HeLa
Assay: Antiproliferative activity against human HeLa cells at 0.5 nM after 132 mins by fluorescence live-cell imaging assay
Assay type: functional, cell-based

SMILES: CC(=O)O[C@H]1C(=O)[C@@]2(C)[C@H]([C@H](OC(=O)c3ccccc3)[C@]3(O)C[C@H](OC(=O)[C@H](O)[C@@H](NC(=O)c4ccccc4)c4ccccc4)C(C)=C1C3(C)C)[C@]1(OC(C)=O)CO[C@@H]1C[C@@H]2O
- Activity: inactive
